Bioassay records deposited in PubChem BioAssay by several laboratories.
Rows were chosen to be rich in hits. Some 2.3% of all compounds tested hit in one or more screens of this group.
UUG fidelity = alters start codon recognition fidelity in yeast | S. cerevisiae UUG-firefly luciferase reporter, luminescence/redox ratio | activity score, % at 18.7 µM | hit rate 0.13% among 350,000 | AID 602363;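 active means replicate mean at a twofold rise or more, about +100% in these data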;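 further: firefly luciferase made from a UUG start codon reports start codon fidelity; reporter light over untreated wells divided by growth signal over untreated wells; some hits fall short of that in this replicate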
MC4R antagonist = MC4R antagonists of cAMP signaling, primary screen, cell-based, TR-FRET, antagonist arm of biased-ligand search | MC4R-expressing cells, MTII-stimulated cAMP, LANCE TR-FRET | inhibition, % at 6.5 µM | 360,000 compounds, 0.48% hits | AID 540295, 2011;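 active = inhibition above its plate's cutoff, the mean of tested wells on that plate plus 3 SD, cut at about 29% in these data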;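 also: 0% = Melanotan II alone and 100% = Melanotan II plus saturating MCL0020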
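Material: U2OS-MC4R stable cell line | Reagent: Melanotan II challenge after compound preincubation | Doses: One concentration, 6.5 µM nominal | Incubation: 30-min compound preincubation, 1-h Melanotan II challenge, 1-h detection, room temperature | Signal: TR-FRET cAMP assay | Replicates: One well per compound, no replicates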
MC4R ag barr = MC4R agonists recruiting beta-arrestin, primary screen, cell-based, luminescence, agonist arm of biased-ligand search; U2OS MC4R beta-arrestin complementation; percent of melanotan II response, DMSO zero; activation, % at 8.9 µM; 360,000 compounds, 0.98% hits; AID 540308, 2011;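 active = activation above a per-plate cutoff, the mean activation of sample wells on that plate plus 3 SD, cut at about 8% in these data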
CendR NRP1 mod = modulators of CendR peptide binding to NRP-1, primary screen, biochemical, fluorescence polarization, uHTS. Neuropilin-1 (Homo sapiens), O14786. FAM-RPARPAR peptide binding to NRP-1. inhibition, % at 25 µM. 360,000 compounds, 0.85% hits. AID 602438, 2012;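 active = inhibition or corrected inhibition above about 18%, plus a signal ratio from 0.5 to 1.5, limit read from the data, passing the limit was not always enough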
ASAP1 GAP inh = inhibitors of human ASAP1 ArfGAP activity, primary screen, biochemical, fluorescence polarization. ASAP1-stimulated ARF1 GTP hydrolysis, GDP FP detection. inhibition, % at 16.5 µM. 360,000 compounds, 0.19% hits. AID 624377, 2012; in the data active = inhibition above about 25%;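 also: 0% = vehicle with enzyme and substrate and 100% = no enzyme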
ARFGAP1 inh = inhibitors of rat ARFGAP1 GAP activity, primary screen, biochemical, fluorescence polarization, GDP tracer; Arfgap1-stimulated ARF1 GTP hydrolysis, GDP FP detection; 360,000 compounds, 0.26% hits; AID 651572, 2012; ADP-ribosylation factor GTPase-activating protein 1 (Rattus norvegicus), Q62848; inhibition, % at 16.5 µM;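 active = inhibition above a per-plate limit, mean inhibition of low control wells plus 3 SD, cut at about 25% in these data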;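 also: 0% = DMSO wells with enzyme and 100% = wells lacking Arfgap1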
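Material: rat Arfgap1 GAP domain (His6, aa 1-136), purified enzyme. Also added: human ARF1(Δ1-17)-GTP substrate. Compound dosing: 16.5 µM single point, 1.26% DMSO. Timing: enzyme reaction 120 min at 25 °C after 20 min preincubation. Signal: GDP detection by fluorescence polarization. Read-out basis: percent inhibition of GAP-stimulated GDP formation, scaled between DMSO and no-Arfgap1 medians.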
The depositor's hits bear a star; nt = no result.

Chains of the proteins cited; added tags and fusions are not shown.
Neuropilin-1 (Homo sapiens), O14786, UniProt O14786, whole entry, looked up: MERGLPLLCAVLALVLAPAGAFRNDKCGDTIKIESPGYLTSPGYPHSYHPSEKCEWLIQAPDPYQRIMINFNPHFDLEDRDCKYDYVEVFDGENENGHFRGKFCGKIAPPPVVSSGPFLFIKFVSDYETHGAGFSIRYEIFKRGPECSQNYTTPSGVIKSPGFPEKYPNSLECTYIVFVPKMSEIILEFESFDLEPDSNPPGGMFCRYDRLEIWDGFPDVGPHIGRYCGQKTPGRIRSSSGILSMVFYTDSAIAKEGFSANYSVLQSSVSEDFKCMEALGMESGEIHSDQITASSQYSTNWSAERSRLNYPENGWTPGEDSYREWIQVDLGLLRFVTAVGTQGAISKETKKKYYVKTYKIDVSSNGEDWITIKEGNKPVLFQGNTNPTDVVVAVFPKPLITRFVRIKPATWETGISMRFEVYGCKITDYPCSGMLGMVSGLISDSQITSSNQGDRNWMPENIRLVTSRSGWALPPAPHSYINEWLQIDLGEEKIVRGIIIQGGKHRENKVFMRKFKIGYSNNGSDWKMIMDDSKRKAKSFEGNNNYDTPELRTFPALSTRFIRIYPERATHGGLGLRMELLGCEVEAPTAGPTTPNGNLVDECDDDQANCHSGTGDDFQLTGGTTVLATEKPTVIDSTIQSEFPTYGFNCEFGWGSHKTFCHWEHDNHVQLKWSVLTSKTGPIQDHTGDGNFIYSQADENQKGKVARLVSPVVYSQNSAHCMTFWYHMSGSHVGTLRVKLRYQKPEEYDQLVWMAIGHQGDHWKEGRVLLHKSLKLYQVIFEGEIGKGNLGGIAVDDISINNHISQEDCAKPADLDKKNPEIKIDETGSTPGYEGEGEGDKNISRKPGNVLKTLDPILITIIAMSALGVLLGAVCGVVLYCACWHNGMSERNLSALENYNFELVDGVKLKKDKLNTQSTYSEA
ADP-ribosylation factor GTPase-activating protein 1 (Rattus norvegicus), Q62848, UniProt Q62848, whole entry, looked up: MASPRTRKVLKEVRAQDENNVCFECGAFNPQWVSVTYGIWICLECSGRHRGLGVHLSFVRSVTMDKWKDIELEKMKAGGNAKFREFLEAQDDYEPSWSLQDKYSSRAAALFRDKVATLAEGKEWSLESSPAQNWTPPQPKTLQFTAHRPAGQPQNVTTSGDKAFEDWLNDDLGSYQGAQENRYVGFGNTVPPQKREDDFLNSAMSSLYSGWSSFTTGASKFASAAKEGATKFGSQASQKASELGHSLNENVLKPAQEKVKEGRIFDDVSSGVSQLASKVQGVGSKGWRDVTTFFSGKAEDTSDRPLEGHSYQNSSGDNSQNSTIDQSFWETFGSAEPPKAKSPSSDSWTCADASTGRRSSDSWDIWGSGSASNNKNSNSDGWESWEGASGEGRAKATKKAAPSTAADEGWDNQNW

Order of results: UUG fidelity, MC4R ag barr, ASAP1 GAP inh, MC4R antagonist, CendR NRP1 mod, ARFGAP1 inh
Fc1ccccc1N1CCN(c2cnc3ccccc3n2)CC1
  -38.6, 1.5, -4.0, -3.7, 24.4*, 12.7
Cc1cn([C@H]2C[C@H](O)[C@@H](CCC(=O)NCc3ccccc3)O2)c(=O)[nH]c1=O
  -10.4, 0.5, 9.7, 2.4, 2.8, 4.6
Cc1cn([C@H]2C[C@H](O)[C@@H](CCC(=O)NCCc3ccc4ccccc4c3)O2)c(=O)[nH]c1=O
  24.3, nt, 8.2, nt, 22.0*, -1.0
Cc1noc(C)c1S(=O)(=O)N(C)C[C@@H]1OCCCC[C@H](C)Oc2ccc(NC(=O)Nc3ccc(F)cc3)cc2C(=O)N([C@H](C)CO)C[C@@H]1C
  3.6, nt, nt, nt, nt, nt
Cc1nn(Cc2ccc([N+](=O)[O-])cc2)c(=O)n1N(C)c1ncc(C(F)(F)F)cc1Cl
  -4.2, -1.1, 3.6, -0.5, 0.2, -11.7
Cc1nn(Cc2ccc(Cl)cc2)c(=O)n1N(C)c1ncc(C(F)(F)F)cc1Cl
  -1.7, 9.2*, 3.2, 3.2, -2.8, 6.6
O=C(C[C@H]1CC[C@H]2[C@@H](COC[C@@H](O)CN2S(=O)(=O)c2ccc(F)cc2)O1)N1CCc2ccccc2C1
  22.8, nt, nt, nt, nt, nt
Cc1ccc(-n2nc3c([n+]2[O-])CCc2c-3no[n+]2[O-])cc1
  -11.9, -2.0, 3.3, 24.3, 3.7, 3.6
[O-][n+]1onc2c1CCc1c-2nn(-c2ccccc2Cl)[n+]1[O-]
  nt, 5.0, -3.6, 36.9*, 13.9, -3.9
COCCNC(=O)c1cc(-c2ccccc2)nn1CC1CC(c2cccc([N+](=O)[O-])c2)=NO1 (centres undefined)
  2.9, -1.3, 6.9, 3.9, 31.2*, 3.9
O=C(NCC1CC1)c1cc(-c2ccccc2)nn1CC1CC(c2cccc([N+](=O)[O-])c2)=NO1 (centres undefined)
  -9.4, 0.6, 4.1, 2.3, 16.5, 14.5
COC(=O)c1ccc(C)c(NC(=O)Cc2coc3cc(OC)ccc23)c1
  -17.8, 0.4, 13.2, -12.2, 31.7*, -0.2
Cc1ccc2c(c1)c1c(n2CC(O)CNC2CCCCC2)CCCC1 (centres undefined)
  -15.1, 9.0*, 0.7, -1.5, 3.3, 4.3
CCOc1ccc(C(=O)Nc2nnc(SCC(=O)NCC3CCCO3)s2)cc1OCC (centres undefined)
  2.0, -3.4, -5.7, -2.9, 20.7*, -11.5
O=C(CNC(=S)N(CCCN1CCOCC1)Cc1cccs1)NCc1ccccc1
  -5.3, -0.7, -10.2, -3.3, 34.1*, 6.7
O=C(NCc1ccco1)Nc1ccc2snnc2c1
  -13.7, -1.0, -7.6, 12.8, 40.1*, -0.3
Cc1nc2ccc(NC(=O)NCc3ccco3)cc2s1
  9.8, 1.4, 8.7, 2.8, 1.3, -12.0
Cc1ccc(S(=O)(=O)N2[C@@H](c3ccc(Cl)cc3)C(C(=O)OC(C)(C)C)=CC[C@H]2c2ccc(Cl)c(Cl)c2)cc1
  -20.5, nt, -4.5, nt, 29.8*, 2.3
Cc1ccc(S(=O)(=O)N2[C@@H](c3ccc(C(C)(C)C)cc3)C(C(=O)O)=CC[C@H]2c2ccc(Cl)c(Cl)c2)cc1
  -10.1, 7.5, -14.2, -6.9, -26.7, -8.8
Oc1ccc(/C=N/N2CCN(C3c4ccccc4-c4ccccc43)CC2)cc1
  nt, 6.3, 22.9, 12.6, 21.0*, 4.3

The list goes on (3 carried over from the part before).
Order of results: UUG fidelity, MC4R ag barr, ASAP1 GAP inh, MC4R antagonist, CendR NRP1 mod, ARFGAP1 inh
Cc1ccc(S(=O)(=O)N2[C@@H](c3ccc(Cl)cc3)C(C(=O)OC(C)(C)C)=CC[C@H]2c2ccc(Cl)c(Cl)c2)cc1
  -20.5, nt, -4.5, nt, 29.8*, 2.3
Cc1ccc(S(=O)(=O)N2[C@@H](c3ccc(C(C)(C)C)cc3)C(C(=O)O)=CC[C@H]2c2ccc(Cl)c(Cl)c2)cc1
  -10.1, 7.5, -14.2, -6.9, -26.7, -8.8
Oc1ccc(/C=N/N2CCN(C3c4ccccc4-c4ccccc43)CC2)cc1
  nt, 6.3, 22.9, 12.6, 21.0*, 4.3
O=C(O)c1ccc(/C=N/N2CCN(C3c4ccccc4-c4ccccc43)CC2)cc1
  -10.8, 1.3, 2.5, -2.3, -2.5, -5.2
Cn1c(=O)c2c(ncn2Cc2ccccc2)n(C)c1=O
  -7.5, 0.3, -0.5, 5.0, -3.9, 10.8
Cn1c(=O)c2c(ncn2CC(COCc2ccccc2)OCc2ccccc2)n(C)c1=O (centres undefined)
  nt, 0.5, -4.7, 3.2, 29.6*, -5.0
Cc1ccc(NC(=O)CSc2nc3c([nH]c4ccccc43)c(=O)n2C)cc1
  -18.2, 15.8*, -10.7, -9.3, -1.8, 10.8
COCCn1c(-c2ccc(OC)cc2)cnc1SCC(=O)Nc1cccc2ccccc12
  -5.5, -0.2, 3.0, 4.6, 25.5*, 0.7
COCCn1c(SCC(=O)Nc2ccccc2OC)nc2c([nH]c3ccccc32)c1=O
  -4.6, 2.2, -13.2, -2.2, 26.3*, 7.9
O=C(C[C@@H]1C=C[C@H](NC(=O)Nc2ccc3c(c2)OCO3)[C@H](CO)O1)NCc1ccc(Cl)cc1
  3.9, nt, nt, nt, nt, nt
C[C@@H]1CCCCO[C@@H](CN(C)Cc2ccc3c(c2)OCO3)[C@@H](C)CN([C@@H](C)CO)C(=O)c2cc(NS(C)(=O)=O)ccc2O1
  -3.9, nt, nt, nt, nt, nt
COc1ccc(CN2CCN(C(=O)c3ccc(S(=O)(=O)NCc4ccco4)cc3)CC2)cc1F
  nt, 0.3, -12.0, -1.2, 29.7*, 5.6
COc1ccc(CN(C)C[C@@H]2Oc3ccc(NS(=O)(=O)c4ccc(C)cc4)cc3C(=O)N([C@H](C)CO)C[C@@H]2C)cc1
  0.1, nt, nt, nt, nt, nt
COc1cccc(C2C3(C#N)C(N)=NC(OC)(OC)C23C#N)c1 (centres undefined)
  -10.9, 0.3, 8.1, 0.8, 8.5, 4.2
COC1(OC)N=C(N)C2(C#N)C(c3cccc(Oc4ccccc4)c3)C12C#N (centres undefined)
  -13.8, 0.1, 6.8, 15.3, 25.8*, -8.9
COC1(OC)N=C(N)C2(C#N)C(c3ccc(F)cc3)C12C#N (centres undefined)
  -6.5, -1.2, -18.0, -0.6, 30.8*, -5.9
C[C@H](CO)N1C[C@H](C)[C@@H](CN(C)Cc2cncnc2)Oc2ncc(-c3cccc(C#N)c3)cc2C1=O
  -1.5, nt, nt, nt, nt, nt
CCCn1c(=O)[nH]c(=O)c2c1nc(-c1ccc(OC(F)(F)C(F)C(F)(F)F)cc1)n2CCOC (centres undefined)
  -0.4, 10.0*, 13.5, 9.7, 3.8, 3.6
COc1ccccc1N1CCN(C(=O)C2c3ccccc3Oc3ccccc32)CC1
  7.2, 1.9, -0.1, -24.2, 24.7*, 3.3
COc1ccccc1N1CCN(C(=O)C2CC2)CC1
  -17.1, -1.3, 2.4, -4.2, 1.5, -1.7
COc1ccccc1OCC(=O)N1CCN(C(=O)COc2ccccc2OC)CC1
  7.2, -1.9, -5.1, 5.1, 14.1, 13.3
COc1ccccc1N1CCN(C(=O)COc2cccc3ccccc23)CC1
  46.8, -1.2, 8.3, -0.8, 31.4*, 3.2

Two of the compounds above, field by field:
O=C(C[C@@H]1C=C[C@H](NC(=O)Nc2ccc3c(c2)OCO3)[C@H](CO)O1)NCc1ccc(Cl)cc1
  UUG fidelity: 3.9
  MC4R ag barr: nt
  ASAP1 GAP inh: nt
  MC4R antagonist: nt
  CendR NRP1 mod: nt
  ARFGAP1 inh: nt

C[C@@H]1CCCCO[C@@H](CN(C)Cc2ccc3c(c2)OCO3)[C@@H](C)CN([C@@H](C)CO)C(=O)c2cc(NS(C)(=O)=O)ccc2O1
  UUG fidelity: -3.9
  MC4R ag barr: nt
  ASAP1 GAP inh: nt
  MC4R antagonist: nt
  CendR NRP1 mod: nt
  ARFGAP1 inh: nt
